For one assay, the target named is MNK2 (Homo sapiens (Human), UniProt Q9HBH9). Description: MNK Biochemical Enzymatic Assay (ADP-Glo), MNK2 binding assay. Here is the method:
MNK Biochemical Enzymatic Assay. This protocol establishes the binding assays for MNK1 and MNK2 using ADP-Glo assay. MNK phosphorylates the substrate and converts ATP to ADP, which was detected by Envision and used to reflect the reminding activity of MNK. Reagents and equipment used in the assay are listed below, followed by the protocol.
• a) Add 50 μL compound to 384-well dilution plate • b) Dilute compound 1:3 in succession in DMSO for each column for 10+0 pts (refer to dilution plate map) • c) Transfer 0.1 μL diluted compound solution in each row to 384 assay plate using Echo, each column containing 2 replicates (refer to assay plate map) • d) Add 5 μL enzyme working solution to 384-well assay plate, centrifuge 1000 RPM for 1 min • e) Incubate at 25° C. for 15 min • f) Add 5 μL substrate working solution to initiate reaction • g) Incubate at 25° C. for 60 min • h) Add 10 μL ADP Glo reagent, centrifuge 1000 RPM for 1 min • i) Incubate at 25° C. for 60 min • j) Add 20 μL kinase detection reagent, centrifuge 1000 RPM for 1 min • k) Incubate at 25° C. for 60 min • l) Read on Envision for US LUM as RLU • m) Data analysis: IC50s were determined based on a non-linear regression analysis of data collected.

Protein sequences, listed by entry. Tags and fused reporters are not part of them.
UniProt Q9HBH9, whole entry: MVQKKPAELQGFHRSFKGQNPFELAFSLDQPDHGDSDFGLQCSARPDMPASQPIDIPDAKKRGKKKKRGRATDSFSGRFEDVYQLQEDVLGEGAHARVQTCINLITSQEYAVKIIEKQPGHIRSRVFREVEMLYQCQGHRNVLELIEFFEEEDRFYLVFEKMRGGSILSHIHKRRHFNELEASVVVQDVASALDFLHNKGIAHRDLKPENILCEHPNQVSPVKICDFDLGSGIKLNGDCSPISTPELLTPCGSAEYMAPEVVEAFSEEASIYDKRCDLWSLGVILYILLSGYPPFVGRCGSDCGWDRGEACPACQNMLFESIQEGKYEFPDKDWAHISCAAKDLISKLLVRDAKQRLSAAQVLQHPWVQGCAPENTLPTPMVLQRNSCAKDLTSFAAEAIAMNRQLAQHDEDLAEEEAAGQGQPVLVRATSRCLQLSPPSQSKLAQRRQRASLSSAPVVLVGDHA

For another assay, the system named is TMD-8 cell p-IF4E. Description: p-eIF4E Signaling Cellular Assay (CisBio HTRF) in TMD-8 cells. The note with it: read-out: TMD-8 cell p-IF4E IC50, 40 min treatment, tested form: formate. The procedure:
p-eIF4E Signaling Cellular Assay. Phosphorylated eIF4E is assayed using the CisBio p-Eif4E HTRF assay kit. Reagents and equipment used in the assay are listed below, followed by the protocol.
Cell medium: RPMI 1640+10% FBS+1*PS, TMD-8 were cultured as recommended and assayed in exponential growth phase. • a) Plate 30 μL of cells in 384 white assay plate in appropriate medium and proper cell density (20 k/well) based on Optimization at 37° C. under 5% CO2 atmosphere • b) Dispense 90 nL of compounds diluted in DMSO and treat for 40 min at 37° C. under 5% CO2 atmosphere • c) Remove cell supernatant by flicking the plate • d) Add 16 μL of supplemented lysis buffer (1×) for 30 minutes at RT under shaking • e) Add 4 μL of premixed antibody solutions prepared in the detection buffer. Cover the plate with a plate sealer. Incubate 0/N at RT • f) Read the fluorescence emission at 665 nm and 620 nm on Envision • g) Data analysis • (1) Ratio […] signal is calculated for each well • (2) % Inhibition is calculated as follow:
% inhibition=100−(Signalcmpd-SignalAve_PC)/(SignalAve_VC-SignalAve_PC)×100. • (3) Calculate IC50 and Plot effect-dose curve of cmpds:
Calculate IC50 by fitting % Inhibition values and log of compound concentrations to nonlinear regression (dose response−variable slope) with Graphpad 8.0. […]

Like-named read-outs stand apart in the source and are kept apart here.

As for `COc1c(Nc2cc(C)c3c([n+]2[O-])C2(CCCCC2)NC3=O)ncnc1N[C@H]1CCOC1`, the IC50 at MNK2 (read-out: MNK2 binding assay IC50) fell in the range of 100 to 1000 nM.
For `Cc1cc(Nc2cc(Nc3ccc(C4CCN(C)CC4)cn3)ncn2)[n+]([O-])c2c1C(=O)NC21CCCCC1`, the IC50 at MNK2 (read-out: MNK2 binding assay IC50, tested form: formate) lay in the range of 0.1 to 10 nM; with TMD-8 cell p-IF4E it was 0.1 to 10 nM.

For the origin of these results see patent US20240092799A1, “MNK INHIBITORS” (Hepagene Therapeutics (HK) Limited, priority 2020, published 2024).
